Values of other authors in publication PMC11711049 (Cancer Science, 2024).
Values joined by “and” are separate entries in the source; they are usually repeats but may differ in a detail not shown here. Equal entries are not always repeated.

Tested on: cholangiocarcinoma with an FGFR2 gene fusion or other rearrangement
Settings: cholangiocarcinoma patients; cited from earlier work

C=CC(=O)N1CC[C@H](n2nc(C#Cc3cc(OC)cc(OC)c3)c3c(N)ncnc32)C1 [futibatinib]
median OS: 21.7 months
median PFS: 9.0 months
response rate / ORR: 42% and 41.7%
